Test system: KERtr cells (Human skin keratinocyte)
Test: Keratinocyte proliferation assay
Format: cell-based
Details: read-out: Kera. Prolif. IC50, 72 hr, BrdU incorporation
Procedure: 6. The keratinocyte proliferation assay is described in the “Assay” section of the Description, infra.
5. The Keratinocyte Proliferation Assay
This Assay is indicative for the treatment of psoriasis. […] Preferred assay results are IC50 values of less than 100 nM.
(5) The Keratinocyte Proliferation Assay:
KERtr cells (Human skin keratinocyte transformed with a retrovirus vector, obtained from ATCC) were plated in 96-well flat-bottomed plates (3000 cells/well) in 100 μl keratinocyte serum free medium supplemented with bovine pituitary extract in the absence of EGF (Life Technologies, Rockville, Md.) and incubated at 37° C. for two days. The cells were treated with various concentrations of VDR ligands (ten-fold serial dilution from 10,000 nM to 0.1 nM in triplicate), dissolved in 100 μl keratinocyte serum free medium supplemented with bovine pituitary extract in the absence of EGF and incubated at 37° C. for 72 hr. BrdU (5-bromo-2′-deoxyuridine) incorporation was analyzed as a measure of DNA replication (Cell proliferation ELISA kit, Roche Diagnostics, Indianapolis, Ind.) and absorbance was measured at 405 nm. Potency values (IC50) values were determined as the concentration (nM) of compound that elicited a half-maximal response.

Row | SMILES | IC50 [nM]
1 | CCC(CC)(c1ccc(OCC(O)CO)c(C)c1)c1ccc(OCC(O)C(C)(C)C)c(C)c1 (centres unmarked) [BB, 3-(4-{1-Ethyl-1-[4-(2-hydroxy-3,3-dimethyl-butoxy)-3-methyl-phenyl]-propyl}-2-methyl-phenoxy)-propane-1,2-diol, reference compound] | 10
2 | C=C1/C(=C\C=C2/CCC[C@]3(C)[C@@H]([C@H](C)/C=C/[C@@H](O)C4CC4)CC[C@@H]23)C[C@@H](O)C[C@@H]1O | 103

Reference: patent publication US7772425B2, “Vitamin D receptor modulators” (Eli Lilly and Company, priority 2002, dated 2010)
